In BindingDB's records for 15780631 (Universit&#224, 2005) one finds Ki data, which are given here for five compounds.

By UniProt entry, the sequences of proteins in these tests, tags left out. Residues count along the entry.
UniProt P22748, 19-284 limits assumed: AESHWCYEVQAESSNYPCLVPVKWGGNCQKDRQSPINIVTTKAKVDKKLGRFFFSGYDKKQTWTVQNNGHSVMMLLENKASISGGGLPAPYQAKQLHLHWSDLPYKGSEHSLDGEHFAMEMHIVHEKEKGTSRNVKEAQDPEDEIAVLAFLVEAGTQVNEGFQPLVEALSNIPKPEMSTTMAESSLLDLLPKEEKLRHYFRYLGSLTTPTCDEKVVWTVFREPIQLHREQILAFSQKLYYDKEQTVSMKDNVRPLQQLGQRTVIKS
UniProt P00915, 2-261 limits assumed: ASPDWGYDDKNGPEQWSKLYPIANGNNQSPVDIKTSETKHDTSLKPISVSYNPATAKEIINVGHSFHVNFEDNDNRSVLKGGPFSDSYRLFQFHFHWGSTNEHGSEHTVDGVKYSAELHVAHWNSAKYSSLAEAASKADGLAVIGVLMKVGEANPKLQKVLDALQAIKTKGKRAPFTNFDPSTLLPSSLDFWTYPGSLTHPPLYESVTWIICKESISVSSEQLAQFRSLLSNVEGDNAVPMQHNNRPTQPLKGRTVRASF
UniProt P35218, 39-305 limits assumed: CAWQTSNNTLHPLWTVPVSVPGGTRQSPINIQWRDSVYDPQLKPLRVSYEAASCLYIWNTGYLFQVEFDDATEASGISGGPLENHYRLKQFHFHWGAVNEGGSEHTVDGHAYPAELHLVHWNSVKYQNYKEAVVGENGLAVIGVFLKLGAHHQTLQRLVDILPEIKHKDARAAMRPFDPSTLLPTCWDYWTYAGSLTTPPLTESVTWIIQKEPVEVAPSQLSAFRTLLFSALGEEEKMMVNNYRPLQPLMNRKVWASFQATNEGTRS

In assay [1] the target is Carbonic anhydrase 4 (Homo sapiens, UniProt P22748). Nature of the assay: Inhibitory constant against human isozymes carbonic anhydrase IV for the CO2 hydration reaction at 20 degree C.
Assay [2] has as its target Carbonic anhydrase 1 (Homo sapiens, UniProt P00915).
Assay [3] addresses Carbonic anhydrase 9 (Homo sapiens, UniProt Q16790). Nature of the assay: Inhibitory constant against human isozymes carbonic anhydrase IX for the CO2 hydration reaction at 20 C.
For assay [4], the target named is Carbonic anhydrase 5A, mitochondrial (Homo sapiens, UniProt P35218). Nature of the assay: Inhibitory constant against human isozymes carbonic anhydrase V for the CO2 hydration reaction at 20 C.
Assay [5] deals with Carbonic anhydrase 2 (Homo sapiens, UniProt P00918). Nature of the assay: Inhibitory constant against human isozymes carbonic anhydrase II for the CO2 hydration reaction at 20 C.

In the case of `[Cl][Pt-2]([Cl])([Cl])([Cl])([Cl])[Cl]`, the Ki (in general, the equilibrium dissociation constant of an inhibitor or competing ligand from its target) was found to be 17.4 mM in assay [1], 13.8 mM in assay [2], 3.63 mM in assay [3] and 10.8 mM in assay [4].

With `[Cl][Pt-2]([Cl])([Cl])[Cl]`, the inhibitory constant (Ki) in assay [1] was 27.5 mM; in assay [2], 0.37 mM; in assay [3], 35.2 mM; in assay [4], 41.7 mM.

Consider `[F][Nb-2]([F])([F])([F])([F])([F])[F]` [[NbF7]2-], for which the Ki in assay [1] stood at 0.5 mM; in assay [4], 0.44 mM.

For `[F][Fe-3]([F])([F])([F])([F])[F]` [hexafluoridoferrate(3-)hexafluoridoferrate(III)], the inhibition constant (Ki) in assay [1] is 0.34 mM; in assay [3] it was 1.62 mM; in assay [4] it was 2.71 mM.

On to AsF6-::CHEMBL181880, for which the inhibition constant (Ki) turned out to be 9.4 mM in assay [5], 5.5 mM in assay [1], 7.9 mM in assay [3] and 75.6 mM in assay [4].
